Laboratory results from ChEMBL document CHEMBL4396874, “Consideration of Binding Kinetics in the Design of Stapled Peptide Mimics of the Disordered Proteins Eukaryotic Translation Initiation Factor 4E-Binding Protein 1 and Eukaryotic Translation Initiation Factor 4G” (J Med Chem, 2019).

The chains behind the UniProt entries cited, without tags or fusion partners.
UniProt P06730, whole entry: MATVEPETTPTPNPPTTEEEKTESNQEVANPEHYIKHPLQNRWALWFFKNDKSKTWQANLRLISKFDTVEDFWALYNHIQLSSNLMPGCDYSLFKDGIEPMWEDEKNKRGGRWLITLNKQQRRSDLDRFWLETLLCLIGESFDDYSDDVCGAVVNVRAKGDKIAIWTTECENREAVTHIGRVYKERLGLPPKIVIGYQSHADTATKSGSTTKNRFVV

Molecular target: Eukaryotic translation initiation factor 4E (Homo sapiens, UniProt P06730)
Experiment: Binding affinity to N-terminal 10His-tagged m7GDP-bound recombinant human eIF4E expressed in Escherichia coli BL21 (DE3) cells assessed as binding constant at 25 degreeC by surface plasmon resonance analysis
Method in brief: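 m7GDP-bound His10-eIF4E captured to ~600 RU on a Ni-activated HisCap chip. EDTA regeneration between cycles. Kd from global 1:1 fit; triplicate experiments.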

K: 6.3 nM
SMILES: CC(=O)N[C@@H](CCCCN)C(=O)N[C@@H](CCCCN)C(=O)N[C@@H](CCCNC(=N)N)C(=O)N[C@@H](Cc1ccc(O)cc1)C(=O)N[C@@H](CO)C(=O)N[C@@H](CCCNC(=N)N)C(=O)N[C@@]1(C)CCC/C=C\CCC[C@@](C)(C(=O)N[C@@H](CC(C)C)C(N)=O)NC(=O)[C@H](CC(C)C)NC(=O)[C@H](CC(C)C)NC(=O)[C@H](CCC(N)=O)NC1=O
